Data on 1 compound can be found in patent publication US4628047A (priority 1982, dated 1986).

The subject of this test is Hodgkin's disease (nodular sclerosis). The following applies: diltiazem 180 mg per day, divided in three, 4 days.

`COc1ccc([C@@H]2Sc3ccccc3N(CCN(C)C)C(=O)[C@@H]2OC(C)=O)cc1` [Diltiazem, d-3-acetoxy-cis-2,3-dihydro-5-[2-(dimethylamino)ethyl]-2-(p-methoxyphenyl)-1,5-benzothiazepin-4(5H)-one]: the “reduction of the re-enlarged lymphadenoma” value is on record as “it was reduced”.
